Results from patent US20110067123A1, “MAO-B ELEVATION AS AN EARLY PARKINSON'S DISEASE BIOMARKER” (priority 2008, published 2011).
“Also recorded” adds a separate entry of the source.

Test system: dopaminergic SN neurons
Assay: Stereological TH+ SN cell counts in inducible astrocytic MAO-B transgenic mice
Conditions: dox-induced transgenic mice; co-treatment i.p. 10-30 mg/kg/day for two weeks; FIG. 3A

C#CCN(C)[C@H](C)Cc1ccccc1 [deprenyl]
dopaminergic SN cell loss: prevented; also recorded: attenuated
